The results in this text go back to PubChem BioAssay AID1422 (Emory University Molecular Libraries Screening Center, 2008).

Amino acid sequences for entries named in this document (tags omitted). A change or cut given only in a name is not applied to a line headed by its entry.
UniProt P43116: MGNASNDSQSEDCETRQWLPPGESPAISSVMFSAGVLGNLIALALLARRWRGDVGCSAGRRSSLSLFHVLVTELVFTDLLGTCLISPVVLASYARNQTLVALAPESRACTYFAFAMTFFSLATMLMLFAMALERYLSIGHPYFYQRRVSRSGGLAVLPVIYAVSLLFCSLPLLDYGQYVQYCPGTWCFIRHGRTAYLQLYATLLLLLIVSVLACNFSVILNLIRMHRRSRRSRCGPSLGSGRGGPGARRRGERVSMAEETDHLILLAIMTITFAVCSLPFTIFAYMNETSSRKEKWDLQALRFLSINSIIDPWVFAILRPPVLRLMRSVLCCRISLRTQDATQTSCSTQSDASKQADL

The structures appear in SMILES notation. Several values for one entry are separate records, joined by “and”; a condition that tells them apart may be missing. Equal values may be shown once. This is a selection; strong and weak results do not stand in their true shares. Activity calls are given as the source filed them.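 How the source made its calls: active means percent inhibition above 40 after rounding to a whole number; inactive means the rest.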

The assay concerns the target Prostaglandin E2 receptor EP2 subtype (Homo sapiens) (UniProt P43116). Put plainly: human EP2 receptor antagonists, primary screen, TR-FRET cAMP, C6 glioma cells (AID 1422).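 Further: rat C6 glioma host cells with rolipram phosphodiesterase inhibitor present; the protocol text gives 20 µM as final concentration.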 As to conditions: C6 glioma cells expressing human EP2, cAMP TR-FRET; at 25 µM; stronger effect = higher value; cells stimulated with saturating PGE2.
With `COc1cc(NS(=O)(=O)c2ccc(NC(=S)NC(=O)/C=C/c3ccc(F)cc3)cc2)ncn1`, the inhibition was active: 83.8%.
Under `COc1cc(NS(=O)(=O)c2ccc(NC(=S)NC(=O)c3cccs3)cc2)nc(OC)n1` stands active: 89.5% and active: 71.7%; under `CCc1nnc(NS(=O)(=O)c2ccc(NC(=S)NC(=O)/C=C/c3ccccc3)cc2)s1`, active: 89.7%.
With `COc1cc(/C=C/C(=O)NCCn2c(C)cc3ccccc32)cc(OC)c1OC`, the inhibition is active: 120%.
Turning to `CCc1nnc(NS(=O)(=O)c2ccc(NC(=S)NC(=O)/C=C/c3cccs3)cc2)s1`, the inhibition is active: 82.1% and active: 51.6%.
Under `CCc1nnc(NS(=O)(=O)c2ccc(NC(=S)NC(=O)c3ccc(OC)cc3)cc2)s1` stands active: 72.6%.

Usually inhibition stands for the change of the read-out against control, counted positive when it falls.
